Experimental findings from patent US6506766B1 (Abbott Laboratories, priority 1998, dated 2003) are described below.

Structures are written as SMILES.

Assay [1] concerns the target T1, human progesterone receptor-A [PRA] isoform (Homo sapiens, UniProt P06401).
T1 construct: host or cells: insect SF21 cells (baculovirus)
T1 sequence (P06401 1-769 isoform P06401-2): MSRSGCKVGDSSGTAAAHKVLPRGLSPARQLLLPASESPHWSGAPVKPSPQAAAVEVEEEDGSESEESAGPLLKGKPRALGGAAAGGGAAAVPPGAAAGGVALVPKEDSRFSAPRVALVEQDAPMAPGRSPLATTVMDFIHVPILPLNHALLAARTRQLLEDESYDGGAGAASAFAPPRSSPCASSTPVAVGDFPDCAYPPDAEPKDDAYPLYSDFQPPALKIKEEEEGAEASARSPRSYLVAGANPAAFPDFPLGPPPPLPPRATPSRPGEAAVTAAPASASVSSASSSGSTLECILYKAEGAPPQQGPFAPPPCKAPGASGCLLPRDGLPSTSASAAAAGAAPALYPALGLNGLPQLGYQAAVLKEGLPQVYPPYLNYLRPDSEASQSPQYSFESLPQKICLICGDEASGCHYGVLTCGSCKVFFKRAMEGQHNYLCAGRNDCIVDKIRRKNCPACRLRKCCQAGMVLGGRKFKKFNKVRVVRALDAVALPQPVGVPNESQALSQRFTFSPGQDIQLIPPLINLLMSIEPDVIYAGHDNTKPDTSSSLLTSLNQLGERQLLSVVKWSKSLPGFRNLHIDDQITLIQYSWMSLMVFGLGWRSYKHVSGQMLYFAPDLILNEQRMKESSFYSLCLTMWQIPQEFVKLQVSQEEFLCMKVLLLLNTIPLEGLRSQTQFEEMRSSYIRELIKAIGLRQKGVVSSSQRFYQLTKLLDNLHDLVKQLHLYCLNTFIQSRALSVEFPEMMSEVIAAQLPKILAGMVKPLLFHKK
The assay is described as follows: Radioligand binding with human progesterone receptor cytosol ([3H]-progesterone competition). To be noted: PRA cytosol expressed in insect SF21 cells, [3H]Prog ~0.8 nM, 4° C. overnight; Ki by Cheng-Prusoff, KL ~4.5 nM; read-out: Ki (nM) PR.

Assay [2] has as its target T2, human glucocorticoid receptor-α [GRX] isoform (Homo sapiens, UniProt P04150).
T2 construct: host or cells: insect SF21 cells (baculovirus)
T2 sequence (P04150 1-777): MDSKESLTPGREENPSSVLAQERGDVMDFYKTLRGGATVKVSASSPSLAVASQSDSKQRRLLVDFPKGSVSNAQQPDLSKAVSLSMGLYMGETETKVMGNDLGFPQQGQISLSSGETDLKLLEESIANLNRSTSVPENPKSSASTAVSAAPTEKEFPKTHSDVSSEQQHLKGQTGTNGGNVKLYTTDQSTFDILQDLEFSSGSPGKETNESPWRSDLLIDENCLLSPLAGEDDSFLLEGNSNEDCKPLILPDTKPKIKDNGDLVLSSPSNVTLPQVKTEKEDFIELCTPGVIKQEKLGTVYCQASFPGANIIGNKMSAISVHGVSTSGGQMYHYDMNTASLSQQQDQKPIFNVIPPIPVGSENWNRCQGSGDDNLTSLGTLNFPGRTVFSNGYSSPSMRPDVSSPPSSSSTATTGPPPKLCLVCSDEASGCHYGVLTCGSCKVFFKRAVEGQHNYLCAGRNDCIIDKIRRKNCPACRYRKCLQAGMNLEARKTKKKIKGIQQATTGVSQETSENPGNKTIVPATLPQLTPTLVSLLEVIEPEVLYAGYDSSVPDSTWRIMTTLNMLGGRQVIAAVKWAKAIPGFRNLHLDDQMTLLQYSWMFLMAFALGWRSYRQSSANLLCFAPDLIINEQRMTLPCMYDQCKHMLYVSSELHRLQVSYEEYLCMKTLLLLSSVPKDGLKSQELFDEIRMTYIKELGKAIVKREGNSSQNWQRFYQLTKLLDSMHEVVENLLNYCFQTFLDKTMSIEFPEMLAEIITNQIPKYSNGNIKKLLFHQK
As to the kind of experiment: Radioligand binding with human glucocorticoid receptor cytosol ([3H]-dexamethasone competition). The settings on record: GRX cytosol expressed in insect SF21 cells, [3H]-Dex ~0.9 nM, 4° C. overnight; Ki by Cheng-Prusoff, KL ~1.5 nM; read-out: Ki (nM) GR.

For the compound `CCCC1Oc2cccc(OC)c2-c2ccc3c(c21)C(C)=CC(C)(C)N3` (stereo not drawn) [Example 54, 2,5-Dihydro-10-methoxy-2,2,4-trimethyl-5-propyl-1H-[1]benzopyrano[3,4-f]quinoline], the Ki in assay [1] turned out to be 7340 nM.

As to `CCOC(=O)C1Oc2cccc(OC)c2-c2ccc3c(c21)C(C)=CC(C)(C)N3` (stereo not drawn) [Example 208, 2,5-Dihydro-10-methoxy-5-(carboethoxy)-2,2,4-trimethyl-1H-[1]benzopyrano[3,4-f]quinoline], the Ki in assay [2] is 25 nM.

On to `COc1cccc2c1-c1ccc3c(c1C(CCO)O2)C(C)=CC(C)(C)N3` (stereo not drawn) [Example 199, 2,5-Dihydro-10-methoxy-5-(2-hydroxyethyl)-2,2,4-trimethyl-1H-[1]benzopyrano[3,4-f]quinoline], for which the Ki in assay [2] stood at 106 nM.

`CCCC1Oc2ccc(O)c(Cl)c2-c2ccc3c(c21)C(C)=CC(C)(C)N3` (stereo not drawn) [Example 411, 2,5-Dihydro-9-hydroxy-10-chloro-2,2,4-trimethyl-5-propyl-1H-[1]benzopyrano[3,4-f]quinoline]: the Ki in assay [1] is 8.4 nM.

For the compound `COc1cccc2c1-c1ccc3c(c1C(C)O2)C(C)=CC(C)(C)N3` (stereo not drawn) [Example 57, 2,5-Dihydro-10-methoxy-2,2,4,5-tetramethyl-1H-[1]benzopyrano[3,4-f]quinoline], in assay [2], the Ki was determined as 50 nM.

As for `C=CC(=C)CC1Oc2cccc(OC)c2-c2ccc3c(c21)C(C)=CC(C)(C)N3` (stereo not drawn) [Example 172], the Ki in assay [2] was determined as 7 nM.

As for `CCCCC1Oc2cccc(OC)c2-c2ccc3c(c21)C(C)=CC(C)(C)N3` (stereo not drawn) [Example 20, 5-Butyl-2,5-dihydro-10-methoxy-2,2,4-trimethyl-1H-[1]benzopyrano[3,4-f]quinoline], the Ki in assay [2] turned out to be 3.7 nM.

For `C=CC1Oc2cccc(OC)c2-c2ccc3c(c21)C(C)=CC(C)(C)N3` (stereo not drawn) [Example 320, 2,5-Dihydro-10-methoxy-5-ethenyl-2,2,4-trimethyl-1H-[1]benzopyrano[3,4-f]quinoline], in assay [2], the Ki came out at 49 nM.

As for `COc1cccc2c1-c1ccc3c(c1C(C=C(C)C)O2)C(C)=CC(C)(C)N3` (stereo not drawn) [Example 324, 2,5-Dihydro-10-methoxy-5-(2-methylpropenyl)-2,2,4-trimethyl-1H-[1]benzopyrano[3,4-f]quinoline], the Ki in assay [1] was at least 10000 nM.

Consider `C=CCC1Oc2c(Br)cc(O)c(Cl)c2-c2ccc3c(c21)C(C)=CC(C)(C)N3` (stereo not drawn) [Example 397, 2,5-Dihydro-7-bromo-9-hydroxy-10-chloro-2,2,4-trimethyl-5-allyl-1H-[1]benzopyrano[3,4-f]quinoline], for which, in assay [2], the Ki stood at 2.3 nM.

Regarding `COc1cccc2c1-c1ccc3c(c1C(CCN(C)C)O2)C(C)=CC(C)(C)N3` (stereo not drawn) [Example 64, 2,5-Dihydro-10-methoxy-2,2,4,N,N-pentamethyl-1H-[1]benzopyrano[3,4-f]quinoline5-ethanamine], the Ki in assay [2] turned out to be 62 nM.

For `C#CCC1Oc2cccc(OC)c2-c2ccc3c(c21)C(C)=CC(C)(C)N3` (stereo not drawn) [Example 66, 2,5-Dihydro-10-methoxy-2,2,4-trimethyl-5-(2-propynyl)-1H-[1]benzopyrano[3,4-f]quinoline], the inhibition constant (Ki) in assay [1] is 502 nM.
